Measurements published in US20140331365A1 (priority 2008, published 2014).

How the values were obtained:
[1] = test system: soybean leaves carrying Rps1k; conditions: in vivo
[2] = test system: human lung epithelial cell line A549

Compound | hypersensitive response (HR) to Avr1k in Rps1k leaves in the presence of 1,3IP2 [1] | inhibition of accumulation/entry of PfHRPII(N)-GFP in A549 cells [2]
O=P(O)(O)O[C@@H]1C(O)[C@H](OP(=O)(O)O)[C@@H](O)C(O)[C@H]1O (stereo partly drawn) [1,3-IP2, Inositol 1,3 diphosphate] | no HR was observed | could also inhibit entry
O=P(O)(O)OC1[C@@H](O)[C@H](O)C(OP(=O)(O)O)[C@H](O)[C@@H]1O (stereo partly drawn) [IP2, Inositol-1,4-diphosphate] | – | strongly inhibited
